From PMC12597941 (Frontiers in Pharmacology, 2025)

Experiment: Untargeted LC-HRMS metabolite profiling after oral PAC administration
Conditions: after oral PACs; c = detected in mice plasma
Procedure: Animals to be sacrificed at 6 h (only test item-treated animals) were placed in metabolic cages (650-0100, Nalgene) for the collection of urine. Urine was stabilized with a final concentration of 4 mM NaN3 and stored at 4 °C. At 1 h and 6 h after the administration of the vehicle (1 h only) or test items (1 and 6 h), animals from the respective treatment groups were euthanized by CO2 inhalation. Blood was obtained by cardiac puncture and drawn in lithium-heparin-containing vials for the preparation of plasma by centrifugation (4,000 rpm, 4 °C, 10 min). Plasma was stored at −80 °C until bioanalytical analysis. Samples of the mixed intestinal content were obtained by scraping the small intestine, cecum, and large intestine into a 5-mL tube. Tubes were covered with gaseous N2 and stored at −80 °C.
The supernatant was evaporated to dryness and resuspended in 150 µL 1% FA in H2O/ACN (9/1, v/v) for analysis.
Rat intestinal content was first freeze-dried and finely crushed. […] Ethyl acetate extracts were evaporated to dryness and then resuspended in 300 µL 1% FA in H2O/ACN (9/1, v/v) for untargeted LC-HRMS analysis. […]
Compound discoverer 3.1 (CD, Thermo Fisher Scientific, Waltham, MA, United States of America) was used for untargeted and novel feature detection. […] Then, unknown compounds were detected and grouped with RT tolerance of 0.5 min and 5 ppm mass deviation. […]

With Vanillic acid glucuronide [M05] the “Compartment in which the metabolite was detected” value was “Urine”.
